Results as given in publication PMC5753033.

Target: mCherry-WAVE1 PWCA (274–559aa), for surface immobilization (human) (UniProt Q92558)

## Native, cytoplasmic actin from Acanthamoeba castellanii, monomeric (natural protein)
  elongation of surface-proximal filaments on immobilised PWCA in 1 μM monomeric actin, compared to immobilised mCherry (TIRF): 3.5 fold
